Columns and labels:
NMDAR2B = NMDAR2B (Homo sapiens, UniProt Q13224); test: [3H]MK-801 binding in NMDAR expressing HEK cell membranes (facilitation of NMDAR activation)
Method: (§1) Assays were conducted as described by Moskal et al., “GLYX-13: a monoclonal antibody-derived peptide that acts as an N-methyl-D-aspartate receptor modulator,” Neuropharmacology, 49, 1077-87, 2005. These studies were designed to determine if the test compounds act to facilitate NMDAR activation in NMDAR2A, NMDAR2B, NMDAR2C or NMDAR2D expressing HEK cell membranes as measured by increases in [^3H]MK-801 binding.
(§2) In the assay, 300 μg of NMDAR expressing HEK cell membrane extract protein was preincubated for 15 minutes at 25° C. in the presence of saturating concentrations of glutamate (50 μM) and varying concentrations of test compound (1×10^15M−1×10^−7M), or 1 mM glycine. Following the addition of 0.3 μCi of [^3H]MK-801 (22.5 Ci/mmol), reactions were again incubated for 15 minutes at 25° C. (nonequilibrium conditions). Bound and free [^3H]MK-801 were separated via rapid filtration using a Brandel apparatus.
(§3) In analyzing the data, the DPM (disintegrations per minute) of [^3H]MK-801 remaining on the filter were measured for each concentration of test compound or for 1 mM glycine. The DPM values for each concentration of a ligand (N=2) were averaged. The baseline value was determined from the best fit curve of the DPM values modeled using the GraphPad program and the log(agonist) vs. response (three parameters) algorithm was then subtracted from all points in the dataset. The % maximal [^3H]MK-801 binding was then calculated relative to that of 1 mM glycine: all baseline subtracted DPM values were divided by the average value for 1 mM glycine. The EC50 and % maximal activity were then obtained from the best fit curve of the % maximal [^3H]MK-801 binding data modelled using the GraphPad program and the log(agonist) vs. response (three parameters) algorithm.
(§4) The tables below summarize the results for the wild type NMDAR agonists NMDAR2A, NMDAR2B, NMDAR2C, and NMDAR2D, and whether the compound is not an agonist (−), is an agonist (+), or is a strong agonist (++), where column A is based on the % maximal [^3H]MK-801 binding relative to 1 mM glycine (−=0; <100%=+; and >100%=++); and column B is based on log EC50 values (0=−; ≥1×10^−9 M (e.g., −8)=+; and <1×10^−9 M (e.g., −10)=++).

Sequences of proteins named here, by UniProt entry; tags and fusion partners are left off. Residues count along the entry.
UniProt Q13224, 27-1484 limits assumed: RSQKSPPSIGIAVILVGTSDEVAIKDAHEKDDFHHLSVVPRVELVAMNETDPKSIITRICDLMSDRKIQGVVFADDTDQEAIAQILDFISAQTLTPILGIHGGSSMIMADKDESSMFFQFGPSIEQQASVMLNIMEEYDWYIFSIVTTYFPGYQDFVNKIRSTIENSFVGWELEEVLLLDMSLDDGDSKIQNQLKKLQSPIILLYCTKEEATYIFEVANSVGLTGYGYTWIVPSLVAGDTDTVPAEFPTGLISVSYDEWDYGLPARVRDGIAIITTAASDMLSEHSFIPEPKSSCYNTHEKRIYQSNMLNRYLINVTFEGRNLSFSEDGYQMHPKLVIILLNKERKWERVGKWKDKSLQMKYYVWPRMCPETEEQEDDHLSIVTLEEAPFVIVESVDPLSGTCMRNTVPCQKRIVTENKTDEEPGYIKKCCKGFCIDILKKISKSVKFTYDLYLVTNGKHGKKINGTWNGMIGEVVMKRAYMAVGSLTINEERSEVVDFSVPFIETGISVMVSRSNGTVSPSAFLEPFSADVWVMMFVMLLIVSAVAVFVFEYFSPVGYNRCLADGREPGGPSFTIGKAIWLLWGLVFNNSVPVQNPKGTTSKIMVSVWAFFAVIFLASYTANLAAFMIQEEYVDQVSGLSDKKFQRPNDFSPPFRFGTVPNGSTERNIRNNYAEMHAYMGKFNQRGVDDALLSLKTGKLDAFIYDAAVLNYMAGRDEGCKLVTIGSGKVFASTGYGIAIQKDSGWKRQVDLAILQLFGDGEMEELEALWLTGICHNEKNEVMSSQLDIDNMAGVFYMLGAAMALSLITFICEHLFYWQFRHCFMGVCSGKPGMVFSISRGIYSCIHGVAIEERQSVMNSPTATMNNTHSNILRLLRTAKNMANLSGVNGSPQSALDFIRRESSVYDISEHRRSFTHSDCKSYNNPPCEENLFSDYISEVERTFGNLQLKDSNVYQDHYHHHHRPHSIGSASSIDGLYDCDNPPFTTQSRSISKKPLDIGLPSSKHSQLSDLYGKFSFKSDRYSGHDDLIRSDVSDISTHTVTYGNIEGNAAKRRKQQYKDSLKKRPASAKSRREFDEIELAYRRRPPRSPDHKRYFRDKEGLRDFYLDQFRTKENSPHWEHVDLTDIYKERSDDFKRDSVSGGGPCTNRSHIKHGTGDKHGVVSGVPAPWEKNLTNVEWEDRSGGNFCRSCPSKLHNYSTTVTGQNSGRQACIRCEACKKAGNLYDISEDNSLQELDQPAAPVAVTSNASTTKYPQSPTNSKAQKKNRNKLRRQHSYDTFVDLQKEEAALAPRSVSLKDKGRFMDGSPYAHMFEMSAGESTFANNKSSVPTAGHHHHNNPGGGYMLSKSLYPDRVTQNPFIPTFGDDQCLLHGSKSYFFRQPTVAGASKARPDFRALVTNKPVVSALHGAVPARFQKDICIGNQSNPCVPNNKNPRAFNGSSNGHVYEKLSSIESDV
UniProt Q12879, 23-1464 limits assumed: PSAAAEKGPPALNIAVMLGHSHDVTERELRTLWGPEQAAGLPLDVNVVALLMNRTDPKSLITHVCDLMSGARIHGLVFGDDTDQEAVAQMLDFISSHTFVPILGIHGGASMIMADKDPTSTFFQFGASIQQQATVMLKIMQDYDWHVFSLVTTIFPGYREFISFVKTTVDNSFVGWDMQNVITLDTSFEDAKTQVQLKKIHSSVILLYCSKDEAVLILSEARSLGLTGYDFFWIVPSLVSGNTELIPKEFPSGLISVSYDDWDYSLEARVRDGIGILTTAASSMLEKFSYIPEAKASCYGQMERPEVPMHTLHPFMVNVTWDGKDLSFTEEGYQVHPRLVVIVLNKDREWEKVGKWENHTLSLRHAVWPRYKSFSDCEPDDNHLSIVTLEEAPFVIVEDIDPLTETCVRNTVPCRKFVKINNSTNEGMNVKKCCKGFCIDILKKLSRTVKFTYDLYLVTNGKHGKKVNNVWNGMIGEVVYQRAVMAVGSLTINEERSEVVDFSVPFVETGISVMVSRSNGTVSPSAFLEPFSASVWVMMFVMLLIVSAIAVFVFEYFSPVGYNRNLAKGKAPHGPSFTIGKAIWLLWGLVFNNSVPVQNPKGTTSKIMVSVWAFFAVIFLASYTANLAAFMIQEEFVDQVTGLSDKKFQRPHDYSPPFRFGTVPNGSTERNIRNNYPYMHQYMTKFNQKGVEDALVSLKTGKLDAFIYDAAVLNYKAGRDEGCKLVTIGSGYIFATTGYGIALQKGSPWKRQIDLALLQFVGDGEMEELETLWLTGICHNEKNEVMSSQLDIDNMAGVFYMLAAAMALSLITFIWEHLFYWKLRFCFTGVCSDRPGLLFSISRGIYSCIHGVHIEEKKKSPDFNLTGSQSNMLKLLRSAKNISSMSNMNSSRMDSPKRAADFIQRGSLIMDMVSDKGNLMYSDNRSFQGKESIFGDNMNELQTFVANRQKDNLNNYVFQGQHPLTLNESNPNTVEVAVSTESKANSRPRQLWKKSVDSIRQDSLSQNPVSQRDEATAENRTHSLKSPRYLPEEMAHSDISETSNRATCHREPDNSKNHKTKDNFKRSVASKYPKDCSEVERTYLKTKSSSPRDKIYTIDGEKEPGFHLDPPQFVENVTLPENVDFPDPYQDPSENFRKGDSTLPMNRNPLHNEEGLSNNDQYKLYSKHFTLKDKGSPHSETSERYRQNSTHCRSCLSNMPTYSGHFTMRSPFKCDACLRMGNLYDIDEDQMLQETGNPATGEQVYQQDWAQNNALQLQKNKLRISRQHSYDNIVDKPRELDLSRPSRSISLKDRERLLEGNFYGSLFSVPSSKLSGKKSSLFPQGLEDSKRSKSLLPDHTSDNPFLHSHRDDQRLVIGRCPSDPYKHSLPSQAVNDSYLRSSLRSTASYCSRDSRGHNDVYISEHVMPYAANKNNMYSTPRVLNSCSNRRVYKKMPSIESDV

NMDAR2A = NMDAR2A (Homo sapiens, UniProt Q12879); test: as above
Method: as §1, §2, §3, §4

[1] = 50 μM glutamate, tested form: Na salt
[2] = read-out: B: log EC50 (converted), 50 μM glutamate, tested form: Na salt

CC1CCC2(CC1)CN([C@@H](CO)C(=O)O)C2=O (stereo partly shown)
A: % maximal [3H]MK-801 binding relative to 1 mM glycine (NMDAR2B; [1]): ++ (>100%=++)
EC50 (NMDAR2B; [2]): < 1 nM
A: % maximal [3H]MK-801 binding relative to 1 mM glycine (NMDAR2A; [1]): + (<100%=+)
EC50 (NMDAR2A; [2]): < 1 nM

Source: US10961189B2, “Spiro-lactam NMDA receptor modulators and uses thereof” (Aptinyx Inc., priority 2016, dated 2021)
